The entries are a selection whose mix differs from that of the whole data set. Some of these compounds have results that are not shown, active ones among them. Active and inactive are the calls of the source.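 The calls were made as follows: active = activation at or above 40% of the spot to cytoplasm intensity ratio, with at least 20 cells analyzed; inconclusive = wells under 20 cells, flagged as cytotoxic or low count; inactive = the rest.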
Each compound was assayed against Neurotensin receptor type 1 (Homo sapiens) (UniProt P30989) (assay: agonists of NTR1, primary screen, imaging, U2OS cells, beta-arrestin-GFP, high content (AID 493036;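 also: 0% = DMSO without peptide and 100% = 100 nM NTR1 peptide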) (AID 493036)). Conditions: NTR1-U2OS beta-arrestin-GFP spot imaging, agonist mode; at 20 µM; stronger effect = higher value.

Amino acid sequences for entries named in this document (tags omitted).
UniProt P30989, whole entry: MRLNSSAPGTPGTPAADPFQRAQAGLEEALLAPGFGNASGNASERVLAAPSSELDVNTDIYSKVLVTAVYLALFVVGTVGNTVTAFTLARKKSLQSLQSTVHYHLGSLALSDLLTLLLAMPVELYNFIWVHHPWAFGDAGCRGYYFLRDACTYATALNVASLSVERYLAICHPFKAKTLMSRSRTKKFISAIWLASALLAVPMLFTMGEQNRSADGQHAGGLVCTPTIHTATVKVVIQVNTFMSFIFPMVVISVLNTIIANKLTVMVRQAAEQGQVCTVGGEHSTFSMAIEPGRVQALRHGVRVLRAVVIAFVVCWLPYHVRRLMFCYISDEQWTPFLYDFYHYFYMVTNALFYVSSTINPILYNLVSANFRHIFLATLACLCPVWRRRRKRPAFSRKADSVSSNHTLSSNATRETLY

| Structure (SMILES) | activation |
| --- | --- |
| O=C(OC1CN2CCC1CC2)C(CO)(c1ccccc1)c1ccccc1 (centres undefined) | inactive: -0.3% |
| COc1ccc(Br)c(C(=O)NCC2(N3CCCCC3)CCCCC2)c1 | inactive: 0.2% |
| CN(C)c1cccc(C(=O)NCC2(N(C)C)CCCCC2)c1 | inactive: -0.1% |
| CC(C)Oc1ccc(C(=O)NCC2(N(C)C)CCCCC2)cc1 | inactive: -2.1% |
| CN(C)C1(CNC(=O)c2ccc(Br)cc2)CCCCC1 | inactive: -1% |
| COc1cc(C(=O)NCC2(N(C)C)CCCCC2)c([N+](=O)[O-])cc1OC | inactive: 0.9% |
| COc1ccc(Cl)cc1C(=O)NCC1(N(C)C)CCCCC1 | inactive: -0.4% |
| COc1cccc(C(=O)NCC2(N3CCCCC3)CCCCC2)c1 | inactive: -1.1% |
| O=C(NCC1(N2CCCCC2)CCCCC1)c1cccc(Cl)c1 | inactive: -0.2% |
| CN(C)c1ccc(C(=O)NCC2(N(C)C)CCCCC2)cc1 | inactive: 0.7% |
| CN(C)C1CCCC1OC(=O)C(O)(c1ccccc1)c1ccccc1 (centres undefined) | inactive: -0.7% |
| Cc1ccccc1C(=O)NCC1(N2CCCCC2)CCCCC1 | inactive: -1.3% |
| O=C(NCC1(N2CCCCC2)CCCCC1)c1cc(F)c(F)cc1Cl | inactive: 0.5% |
| C=CCN1CCN(CCOC(=O)C(O)(c2ccccc2)c2ccccc2)CC1 | inactive: 1% |
| O=C(NCC1(N2CCCCC2)CCCCC1)c1cccc(Br)c1 | inactive: 1.8% |
| CCN1CCCC(OC(=O)C2(O)c3ccccc3C=Cc3ccccc32)C1 (centres undefined) | inactive: -0.2% |
| Cc1cc(C(=O)NCC2(N3CCCCC3)CCCCC2)ccc1[N+](=O)[O-] | inactive: 0.1% |
| COc1ccc(C(=O)NCC2(N(C)C)CCCCC2)cc1 | inactive: 1.5% |
| O=C(NCC1(N2CCCCC2)CCCCC1)c1cc([N+](=O)[O-])ccc1Cl | inactive: -1.5% |
| CN1[C@@H]2CC[C@H]1CC(OC(=O)C(O)(c1ccccc1)c1ccccc1)C2 (some centres undefined) | inactive: 0.1% |
| CC(C)N1C(=O)CC2(CCN(CCOC(=O)C(O)(c3ccccc3)c3ccccc3)CC2)C1=O | inactive: 1.9% |
| COc1cc(SC)ccc1C(=O)NCC1(N(C)C)CCCCC1 | inactive: -0.6% |
| CCN(CC)CC(C)C(C)OC(=O)C(O)(c1ccccc1)c1ccccc1 (centres undefined) | inactive: 0.4% |
| Cc1ccc(C(=O)NCC2(N3CCCCC3)CCCCC2)cc1 | inactive: -0.3% |
